The structures appear in SMILES notation. The entries are a selection whose mix differs from that of the whole data set. Active and inactive are the calls of the source.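 The calls were made as follows: active = luminescence in either replicate above plate mean of wells with a partly effective reference agonist dose plus 3 SD; inactive = the rest.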

A short description of the test: effects on beta-adrenoceptor cAMP reporter signal – cell-based, secondary assay 2, luminescence, counter-screen for D1 allosteric modulator project, confirmation (AID 647).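 Also: isoproterenol raises cAMP through native beta-adrenoceptor Gs so signal bypasses D1; raw luminescence counts from the Envision reader with one value per duplicate well.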 The conditions noted are these: HEK293 D1 CRE-luciferase, isoproterenol EC30 counter-screen; at 10 µM; stronger effect = higher value.
Take `Cc1nc2ccc3ccccc3c2s1.O=[N+]([O-])c1cc([N+](=O)[O-])c(O)c([N+](=O)[O-])c1`: the luminescence was active: 3380.
